Measurements as given in patent US7951832B2, “Pyrazole derivatives as kinase inhibitors” (Burnham Institute for Medical Research, priority 2007, dated 2011).

The chains behind the UniProt entries cited, without tags or fusion partners.
UniProt P42336, whole entry: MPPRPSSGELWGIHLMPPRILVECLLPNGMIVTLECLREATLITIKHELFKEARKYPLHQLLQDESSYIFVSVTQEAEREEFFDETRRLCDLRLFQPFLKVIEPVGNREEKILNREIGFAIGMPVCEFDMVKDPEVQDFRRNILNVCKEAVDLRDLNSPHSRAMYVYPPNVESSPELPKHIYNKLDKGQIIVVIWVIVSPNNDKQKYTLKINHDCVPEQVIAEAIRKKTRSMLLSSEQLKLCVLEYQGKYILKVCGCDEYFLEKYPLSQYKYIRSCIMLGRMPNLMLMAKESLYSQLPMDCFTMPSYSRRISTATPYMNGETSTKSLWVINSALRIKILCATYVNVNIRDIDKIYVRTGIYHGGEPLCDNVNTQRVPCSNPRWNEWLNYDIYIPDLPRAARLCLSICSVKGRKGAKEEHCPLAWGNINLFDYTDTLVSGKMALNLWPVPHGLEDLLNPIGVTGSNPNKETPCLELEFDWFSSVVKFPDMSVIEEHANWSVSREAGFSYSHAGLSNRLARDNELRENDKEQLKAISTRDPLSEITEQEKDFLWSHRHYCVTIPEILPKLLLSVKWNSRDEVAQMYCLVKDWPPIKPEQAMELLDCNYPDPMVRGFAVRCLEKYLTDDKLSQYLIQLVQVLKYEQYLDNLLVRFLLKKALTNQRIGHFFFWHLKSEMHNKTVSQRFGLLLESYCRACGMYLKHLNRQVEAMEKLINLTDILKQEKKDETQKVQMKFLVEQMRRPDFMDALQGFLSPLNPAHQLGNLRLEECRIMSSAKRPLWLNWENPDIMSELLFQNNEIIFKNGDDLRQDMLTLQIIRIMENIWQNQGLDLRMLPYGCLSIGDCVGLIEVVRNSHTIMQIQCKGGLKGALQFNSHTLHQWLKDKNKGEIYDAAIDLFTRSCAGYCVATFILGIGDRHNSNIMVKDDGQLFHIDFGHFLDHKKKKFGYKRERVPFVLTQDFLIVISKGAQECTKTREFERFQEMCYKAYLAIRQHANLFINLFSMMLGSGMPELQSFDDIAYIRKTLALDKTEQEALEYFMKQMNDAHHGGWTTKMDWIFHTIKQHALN

Biological target: PI3 K P110α (Homo sapiens, UniProt P42336)
Assay: Inhibition of PI3K (P110α)
Assay type: biochemical
Conditions: values printed without % sign, read as IC50, read-out: PI3 K (% at 25 μM, or IC50), P110α

`C(#Cc1n[nH]c2ccccc12)c1cccnc1` showed an IC50 of 0.075 µM.
